The chains behind the UniProt entries cited, without tags or fusion partners. Where a name states a change or a piece, a line headed by the entry shows the natural chain unless it says otherwise.
UniProt P41145: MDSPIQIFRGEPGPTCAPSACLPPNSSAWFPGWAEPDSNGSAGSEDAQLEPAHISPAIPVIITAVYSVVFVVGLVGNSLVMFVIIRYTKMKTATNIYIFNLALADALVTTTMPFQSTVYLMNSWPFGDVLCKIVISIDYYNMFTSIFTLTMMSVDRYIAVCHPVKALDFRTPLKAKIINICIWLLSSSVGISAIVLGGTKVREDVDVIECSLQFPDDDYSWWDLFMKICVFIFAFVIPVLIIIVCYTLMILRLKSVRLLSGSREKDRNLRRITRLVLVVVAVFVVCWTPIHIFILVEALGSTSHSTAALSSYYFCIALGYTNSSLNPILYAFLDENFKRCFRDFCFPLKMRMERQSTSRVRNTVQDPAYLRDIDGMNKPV

According to PMC3701944 (Journal of medicinal chemistry, 2013):

Biological target: cloned human κ opioid receptor (KOP) (Homo sapiens, UniProt P41145)
Assay: [35S]GTPγS binding assay, inhibition of U69,593-stimulated binding
Type: biochemical
Conditions: ratio of Ke values

Question: How did the δ/κ (selectivity for κ relative to δ (fold)) turn out when norBNI [reference compound] was run?
Answer: 580

Question: And the μ/κ (selectivity for κ relative to μ (fold))?
Answer: 534
